The values below come from PMC10350922, “Allosteric Inhibitors of Macrophage Migration Inhibitory Factor (MIF) Interfere with Apoptosis-Inducing Factor (AIF) Co-Localization to Prevent Parthanatos” (Journal of Medicinal Chemistry, 2023).

This assay has as its system HeLa cells. The experiment in a line: Cell death determination by flow cytometry (Hoechst 33342 / PI). The settings on record: MNNG 50 μM 15 min, with or without 100 μM inhibitor pretreatment, 24 h. Format: cell-based.

Turning to N-methyl-N′-nitro-N-nitrosoguanidine, the “Cells stained by PI” value stood at 50%.
